Reference: PubChem BioAssay AID1347041 (National Center for Advancing Translational Sciences (NCATS), 2019)
Only a part is listed here, and it is no random draw. The source made the active and inactive calls. Rule as the data show it: active = activity change below about -30%; inconclusive = mostly about -25% to -30%; inactive = weaker than that.
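Also: values are at about 110 or 230 µM; plate controls were DMSO wells for no effect and wells without enzyme for full effect.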

These compounds were tested against L-lactate dehydrogenase A chain (Homo sapiens) (UniProt P00338) (assay: qHTS assay for inhibitors of human lactate dehydrogenase). Details: purified LDHA, NADH/diaphorase-resazurin fluorescence; active compounds read low.
Procedure, shortened: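 Remaining NADH was detected by diaphorase (0.133 mg/mL) converting 37 µM resazurin to fluorescent resorufin, read at 0 and 20 minutes. The preceding 5-minute room-temperature reaction used 2 nM LDHA, 0.2 mM sodium pyruvate and 0.06 mM NADH at pH 7.4.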
With `C[C@@H]1C=CCP(=O)(Oc2ccccc2)O1` (stereo not given in full) the activity change was inactive: -4.26%.
With `C[C@H]1OP(=O)(Oc2ccccc2)C[C@@H]2O[C@@H]21` (stereo not given in full) the activity change was inactive: -3.15%.
In the case of `CC(=O)Nc1ccc([As](=O)(O)O)c(O)c1`, the activity change is reported as inactive: 3.56%.
`CC(=O)Nc1ccc(Oc2c([N+](=O)[O-])cc([N+](=O)[O-])cc2[N+](=O)[O-])cc1` was tested, and the activity change was inactive: 1.48%.
For `O=P1(Nc2nc3ccc(Cl)cc3s2)COc2ccccc2O1` (stereo not given), the activity change was inactive: 15.6%.
`CCOc1ccc(C2=NCC(CBr)S2)cc1` (stereo not given) was tested, and the activity change was inactive: -1.73%.
In the case of `CCc1cc(O)c([N+](=O)[O-])c(C)c1[N+](=O)[O-]`, the activity change is reported as inactive: 7.07%.
In the case of `CC(C)(C)C(=O)NC(Sc1ccccc1)C(Cl)(Cl)Cl` (stereo not given), the activity change is reported as inactive: -4.75%.
With `COC(=O)c1cc2c(s1)N=C(c1ccccc1)N(C)P2(=O)N1CCOCC1` (stereo not given) the activity change was inactive: -3.74%.
In the case of `CCn1nc(C(=O)NCC2(N3CCCCC3)CCCCC2)c2ccccc2c1=O`, the activity change is reported as inactive: -3.6%.
`Cc1ccc(OP(=O)(Nc2ccccn2)Oc2ccc(C)cc2)cc1` was tested, and the activity change was inactive: -7.15%.
With `CC(=O)NC(SC(=S)N(CC(C)C)CC(C)C)C(Cl)(Cl)Cl` (stereo not given) the activity change was inactive: 1.07%.
With `O=C(OC1CN2CCC1CC2)c1ccccc1` (stereo not given) the activity change was inactive: -6.87%.
For `CCC(=O)N1C2C3N(C(=O)CC)C1C1N(C(=O)CC)C(C(N1C(=O)CC)N3C(=O)CC)N2C(=O)CC`, the activity change was inactive: -4.83%.
For `Cc1ccccc1OP(=O)(Nc1ccccn1)Oc1ccccc1C`, the activity change was inactive: -0.365%.
For `CC(NC(=O)COC(=O)C(O)(c1ccccc1)c1ccccc1)c1ccccc1` (stereo not given), the activity change was inactive: -2.19%.
In the case of `CN(C)C(=O)Oc1noc2ccccc12`, the activity change is reported as inactive: -15.6%.
In the case of `O=c1c2cc([N+](=O)[O-])ccc2[nH]c2c([N+](=O)[O-])cc([N+](=O)[O-])cc12`, the activity change is reported as inactive: 12.4%.
With `CCNC(=S)/N=C(\N)N[N+](=O)[O-]` the activity change was inactive: 1.14%.
For `O=C(NC1CCS(=O)(=O)C1)NP(=S)(Oc1ccccc1)Oc1ccccc1` (stereo not given), the activity change was inactive: 0.0551%.
With `c1ccc(-c2nn[nH]n2)c(-c2nn[nH]n2)c1` the activity change was inactive: -1.99%.
In the case of `Cc1ccc(NP(=O)(Oc2cccc(C)c2)Oc2cccc(C)c2)nc1`, the activity change is reported as inactive: -6.26%.
For `O=P1(N(CCCl)CCCl)OCCC2CCCCN21` (stereo not given), the activity change was inactive: -4.14%.
`CCN(N=Nc1nonc1N)c1nonc1N` was tested, and the activity change was inactive: -3.99%.
In the case of `Nc1cccc2ccc([As](=O)(O)O)cc12`, the activity change is reported as inactive: 12.3%.
In the case of `O=C(O)c1ccccc1[As](=O)(O)O`, the activity change is reported as inactive: -9.61%.
`BrCCNCCc1ccncc1` was tested, and the activity change was inactive: -7.12%.
`CC(=O)Nc1ccc([As](=O)(O)O)cc1` was tested, and the activity change was inactive: -5.5%.
In the case of `CCCC1OP(N)(=O)OCC1CC` (stereo not given), the activity change is reported as inactive: -4.8%.
For `CN(C)P(=O)(N(C)C)n1c(Nc2ccccc2)nnc1-c1ccccc1`, the activity change was inactive: 0.0215%.
For `O=P(Nc1nc2ccc(Cl)cc2s1)(c1ccccc1)c1ccccc1`, the activity change was inactive: -9.5%.
`CCOP(=O)(Nc1ccccc1)OCC` was tested, and the activity change was inactive: -1.8%.
In the case of `Cc1cc(SC(NC(=O)c2ccc(F)cc2)C(Cl)(Cl)Cl)ncn1` (stereo not given), the activity change is reported as inactive: -3.4%.
`Cc1ccc(NP(=O)(Oc2ccccc2F)Oc2ccccc2F)nc1` was tested, and the activity change was inactive: -7.13%.
`CN(C(=O)Cc1ccc(Cl)c(Cl)c1)[C@H]1CCCC[C@@H]1N1CCCC1` was tested, and the activity change was inactive: 1.26%.
`CC(C)CC(=O)NC(Sc1ccc(Cl)cc1)C(Cl)(Cl)Cl` (stereo not given) was tested, and the activity change was inactive: -6.48%.
`Nc1cc(N)c2nonc2c1[N+](=O)[O-]` was tested, and the activity change was inactive: 18.4%.
With `Oc1ccccc1CNc1ccccn1` the activity change was inactive: -2.28%.
`O=C(NC(Sc1ccncn1)C(Cl)(Cl)Cl)c1ccccc1` (stereo not given) was tested, and the activity change was inactive: -1.41%.
For `O=[N+]([O-])C1C(O)C(O)C([N+](=O)[O-])C(O)C1O` (stereo not given), the activity change was inactive: -3.18%.
With `O=[N+]([O-])c1cc2c(cc1[N+](=O)[O-])OCO2` the activity change was inactive: 2.88%.
`NC(=O)c1cc([N+](=O)[O-])cc([N+](=O)[O-])c1N` was tested, and the activity change was inactive: -1.33%.
For `CN(C(=O)Cc1ccc(Cl)c(Cl)c1)[C@H]1CCCC[C@H]1N1CCCC1`, the activity change was inactive: -8.76%.
In the case of `Cc1ccc(N/C(=N/P(=O)(N2CCOCC2)N2CCOCC2)N2CCOCC2)cc1`, the activity change is reported as inactive: -0.0122%.
For `COc1ccccc1OP(=O)(Nc1ccc(C)cn1)Oc1ccccc1OC`, the activity change was inactive: -8.66%.
In the case of `Cc1ccc(OP(=O)(Nc2nccs2)Oc2ccc(C)cc2)cc1`, the activity change is reported as inactive: -4.01%.
`Clc1ccc(Cl)c(NC2=NCC(CBr)S2)c1` (stereo not given) was tested, and the activity change was inactive: -5.38%.
In the case of `CN1CCCC(OC(=O)C(c2ccccc2)c2ccccc2)C1` (stereo not given), the activity change is reported as inactive: -0.199%.
In the case of `Nc1ccc([As](=O)(O)c2ccc(N)cc2)cc1`, the activity change is reported as inactive: 1.08%.
For `C[N+]1=C2C=CC=CC=C2SC12C([N+](=O)[O-])=CC([N+](=O)[O-])=C[C-]2[N+](=O)[O-]` (stereo not given), the activity change was inactive: 6.16%.
For `CCN(/C(=N/P(=O)(N1CCOCC1)N1CCOCC1)N1CCOCC1)c1ccc(OC)cc1`, the activity change was inactive: -1.11%.
With `CC(C)=N/N=C(\N)N[N+](=O)[O-]` the activity change was inactive: -17.1%.
In the case of `CC(C)c1nc(Nc2ccccc2)n(P(=O)(N(C)C)N(C)C)n1`, the activity change is reported as inactive: -3.12%.
In the case of `CN(C)C(=O)OCCc1n(C)cc[n+]1C`, the activity change is reported as inactive: -4.01%.
`c1cc(-c2nn[nH]n2)ccc1-c1nn[nH]n1` was tested, and the activity change was inactive: 6.14%.
In the case of `CC1CCN(C(=O)Oc2c(Cl)cc(Cl)c3cccnc23)CC1`, the activity change is reported as inactive: -3.88%.
In the case of `COc1ccc(C2=NCC(CBr)S2)cc1` (stereo not given), the activity change is reported as inactive: -12.1%.
For `O=[N+]([O-])c1cccc2n[nH]nc12`, the activity change was inactive: -1.26%.
In the case of `CC(=O)N1C2C3N(C(C)=O)C1C1N(C(C)=O)C(C(N1C(C)=O)N3C(C)=O)N2C(C)=O`, the activity change is reported as inactive: -10.4%.
For `Cc1ccc(NP(=O)(Oc2ccccc2)Oc2ccccc2)nc1`, the activity change was inactive: -0.789%.
For `CCc1nc2c(n1)c1c(non1O)c1c2no[n+]1[O-]`, the activity change was inactive: 33.9%.
`O=[N+]([O-])c1cc([N+](=O)[O-])c(CCNc2ccccc2)c([N+](=O)[O-])c1` was tested, and the activity change was inactive: 8.06%.
In the case of `CC(C)(C)C(=O)NC(Sc1ccncn1)C(Cl)(Cl)Cl` (stereo not given), the activity change is reported as inactive: 0.926%.
`O=[N+]([O-])c1ncn(CCn2ncnc2[N+](=O)[O-])n1` was tested, and the activity change was inactive: 4.84%.
`O=[N+]([O-])c1cccc(NC2=NCC(CBr)S2)c1` (stereo not given) was tested, and the activity change was inactive: -0.212%.
`COC(=O)C1(C)COP(=O)(Nc2ccccc2)OC1` (stereo not given) was tested, and the activity change was inactive: -9.48%.
In the case of `O=C(O)CNc1ccc([As](=O)(O)O)cc1`, the activity change is reported as inactive: -1.3%.
With `O=P1(N(CCCl)CCCl)OCCCS1` (stereo not given) the activity change was inactive: -17.2%.
`O=C(Nc1cc([As](=O)(O)O)ccc1O)c1ccccc1` was tested, and the activity change was inactive: -3.62%.
With `O=P(/N=c1/nc(-c2ccccc2)n(-c2ccccc2)s1)(Nc1ccccc1)Nc1ccccc1` the activity change was inactive: -23.1%.
